Antibody variant affinities, Ab-14 light chain, assay B

Data: MIT Lincoln Laboratory AlphaSeq set, Li et al. 2023, doi:10.1038/s41467-023-39022-2, as distributed in FLAb.

The target is the same throughout: PDVDLGDISGINAS, from the HR2 region of SARS-CoV-2 spike.

Each scFv is VH, a 15-residue (Gly4Ser)3 linker, VL, as in the parent Ab-14, and differs from it in the CDRs of the light chain only.
VH: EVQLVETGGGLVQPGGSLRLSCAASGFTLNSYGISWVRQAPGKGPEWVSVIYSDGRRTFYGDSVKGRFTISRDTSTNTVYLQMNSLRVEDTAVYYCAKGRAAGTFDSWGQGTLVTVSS
VL: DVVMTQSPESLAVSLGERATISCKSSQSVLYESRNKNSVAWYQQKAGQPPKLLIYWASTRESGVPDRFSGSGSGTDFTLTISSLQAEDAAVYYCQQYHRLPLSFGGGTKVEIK

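This is the validation round: designs drawn from the data on random variants, tested in the same kind of assay. Several design methods are mixed in this list. Affinity was read by AlphaSeq, a pooled yeast mating assay with surface-displayed partners. Binding brings cells together so that they mate, and sequencing counts the barcode pairs among the diploids. The ratio of observed to expected reads was calibrated, replicate by replicate, on BCL2-family standards whose Kd was known from biolayer interferometry. Each pool was mated in six replicate cultures.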

Each variant is given by its three light chain CDRs, as the data file delimits them; those of the parent are KSSQSVLYESRNKNSVA, WASTRES, QQYHRLPLS. Variants here have more than six changes. Numbers give log10(Kd / nM), so 0 is 1 nM and 3 is 1 µM. Smaller is tighter. Averages over replicates are reported, and they cover detected replicates only. An entry "nd" has no value in the source: the pair was not observed among the diploids in any replicate. This suggests poor binding but is not conclusive. Values of this round are not directly comparable with the first-round values of the same sequences. Three control strains display no target. For all light chain designs, 4% of the pairings with them gave a signal, with a median of 2.64 and one signal in twenty below 1.59, so weak values seen in few replicates may be background. For each scFv, signals with the empty controls are counted beside the result. In the paper, a design with two or fewer of six values counts as a poor binder.

Variant TLYGLSMSMAKNKNNVA | EMTTREK | QQYDRLPLI gave 1.37 (6 of 6 replicates; controls 0 of 18). For NISYHQGEPTNSVNNVA | QTSKRAH | QQYQHLPLC, the assay gave 1.99 (6 of 6 replicates; controls 0 of 18). Variant KLNDTFQQYERNNSSVA | DAIISEA | QQYARLPLI showed 1.60 (6 of 6 replicates; controls 1 of 18). Variant IVSQLMLWGMHAKNSIA | EAETRIN | QQYVRLPLF showed 0.97 (2 of 6 replicates; controls 2 of 18). With HVSMLTLGGLRNRNSVA | QMTTREN | QQYDRLPLA the result was 1.21 (6 of 6 replicates; controls 1 of 18). For RMNWHMSGATEAKNSMA | GVEHRAN | QQYDRLPLS, the assay gave 0.25 (6 of 6 replicates; controls 0 of 18).

For KLTMLTGTEKVRGNNVA | EMETREK | QQYNRLPLA, the assay gave 0.14 (6 of 6 replicates; controls 0 of 18). For IISQVDAYESRNKNSIA | DQSNRGS | QQYDRLPLS, the assay gave 1.08 (6 of 6 replicates; controls 1 of 18). Variant KITGMWTFESHNRQNIA | EESTRED | QSYHRLPLS gave 0.23 (6 of 6 replicates; controls 0 of 18). Variant MISQLYNMGTFAINSVA | QAEIRNA | QQYDRLPLI showed 2.24 (6 of 6 replicates; controls 1 of 18). With MISDLMNYGSRNKNPIA | NASTREY | QQYHRLPLE the result was 0.97 (6 of 6 replicates; controls 1 of 18). Variant KISMSYRYESQEENSIA | EMSTREE | QSYHRLPLS showed nd (0 of 6 replicates; controls 0 of 18).

Variant HISSMDMLDGGIIHSIA | DTGITER | QQYMRLPLI gave 0.81 (6 of 6 replicates; controls 3 of 18). For NLTTGYEQGALNTDNVA | HGNMREA | QQYYRLPLS, the assay gave -0.11 (6 of 6 replicates; controls 0 of 18). For MVSDLVKMGVRNHNSVA | DNSTRGS | QQYDRLPLS, the assay gave 2.17 (6 of 6 replicates; controls 0 of 18). Variant KISGMLQKESKNKNSVA | EMVNRES | QQYDRLPLS gave 0.34 (6 of 6 replicates; controls 1 of 18). Variant KISQMFNVGTKNTNSLA | EMNTRGG | QDYHRLPLS gave 1.46 (6 of 6 replicates; controls 2 of 18). For FIPQSGLYDSRNDNSVA | SASTRFS | QQYHRLPLS, the assay gave -0.10 (6 of 6 replicates; controls 2 of 18).

Variant KVSEFMRGLMQRKDSIA | DNETRGN | QQYDRLPLS gave 1.81 (6 of 6 replicates; controls 0 of 18). For KLGQMVGYESRNKSRVA | DNSTRES | QQYDRLPLS, the assay gave 2.47 (4 of 6 replicates; controls 0 of 18). Variant MFSMMHAMQYNEESSIA | DAEALNS | QQYFELPLS showed nd (0 of 6 replicates; controls 1 of 18). For KLDGSCQYESRTKNSVA | NASTRES | QQYHRLPLS, the assay gave 0.48 (6 of 6 replicates; controls 0 of 18). With KISQMVKVGMTHGNSIA | EEATRSD | QQYHRLPLS the result was 1.02 (6 of 6 replicates; controls 0 of 18). Variant TLADVTRMESNKKSSIA | DMSNRAD | QQYHRLPIS gave 1.29 (6 of 6 replicates; controls 1 of 18).

Variant KLMQSTLYESRMANNVA | SASTREE | QQYHRLPLS showed -0.28 (6 of 6 replicates; controls 0 of 18). Variant IVSQLMMWGMHAKNSIA | EAVTRYN | QQYDRLPLI showed 4.02 (1 of 6 replicates; controls 0 of 18). Variant KISMLQRYESQAKNNIA | EMSRREN | QQYHRLPLS gave 0.40 (6 of 6 replicates; controls 1 of 18). Variant MLSQMWALGMKVSNSVA | QASMRFN | QQYNRLPLI showed 2.27 (2 of 6 replicates; controls 0 of 18). With HLAVNMELLDSSKYHVA | NASDREP | QHYNRLPLI the result was 2.06 (3 of 6 replicates; controls 1 of 18). Variant TVSQVYEMLSRNKNSVA | DMNTRES | QQYDRLPLS showed 0.22 (6 of 6 replicates; controls 0 of 18).

For MVTQVAMQGMTNKRSIA | NAETRET | QQYHRLPLI, the assay gave -0.03 (6 of 6 replicates; controls 0 of 18). Variant VMQMDNDRNNDITYAIA | DVTMREK | QQYNRLPLM gave 0.93 (6 of 6 replicates; controls 1 of 18). Variant IIEQGEYEQEQHKNAIA | SGHERMR | QQYYKLPLV showed 0.68 (6 of 6 replicates; controls 2 of 18). With TISQSVLMTGLNRNSVA | QASERLE | QQYHRLPLS the result was 0.46 (6 of 6 replicates; controls 2 of 18). For KLAMYLEMNARTIHAIA | EANLKPS | QQYNRLPFS, the assay gave 2.28 (4 of 6 replicates; controls 1 of 18). Variant WLSMWEQSGTRGYSSVA | DTDARMA | QQYFRLPLS gave 0.45 (6 of 6 replicates; controls 3 of 18).

Variant MLVGPDEMEEHNWQSVA | SAEALAM | QQYFRLPLS gave 0.53 (6 of 6 replicates; controls 1 of 18). Variant TISGVMTQMSHSKNNVA | EVSMRLD | QQYFRLPLE showed 0.97 (6 of 6 replicates; controls 0 of 18). For ALSQSELYESRMWNSVA | NASTRED | QQYHRLPLS, the assay gave 1.38 (6 of 6 replicates; controls 0 of 18). With SLYDATGMESRNKNPIA | DVSTRPS | QQYHRLPLS the result was 0.70 (6 of 6 replicates; controls 1 of 18). With SITVIDNPGSQGHNNIA | SGSCRAE | QQYIRLPLI the result was 0.67 (6 of 6 replicates; controls 3 of 18).

The closing 4 entries, repeated:

CDR-L1	CDR-L2	CDR-L3	mean log10 Kd (nM)	replicates with signal	signal with controls
TISGVMTQMSHSKNNVA	EVSMRLD	QQYFRLPLE	0.97	6 of 6	0 of 18
ALSQSELYESRMWNSVA	NASTRED	QQYHRLPLS	1.38	6 of 6	0 of 18
SLYDATGMESRNKNPIA	DVSTRPS	QQYHRLPLS	0.70	6 of 6	1 of 18
SITVIDNPGSQGHNNIA	SGSCRAE	QQYIRLPLI	0.67	6 of 6	3 of 18